Results on 1 compound are retold here after US6890919B2, “Atypical antipsychotic agents having low affinity for the D2 receptor” (priority 2001, dated 2005).

By UniProt entry, the sequences of proteins in these tests, tags left out.
UniProt P14416, whole entry, species assumed: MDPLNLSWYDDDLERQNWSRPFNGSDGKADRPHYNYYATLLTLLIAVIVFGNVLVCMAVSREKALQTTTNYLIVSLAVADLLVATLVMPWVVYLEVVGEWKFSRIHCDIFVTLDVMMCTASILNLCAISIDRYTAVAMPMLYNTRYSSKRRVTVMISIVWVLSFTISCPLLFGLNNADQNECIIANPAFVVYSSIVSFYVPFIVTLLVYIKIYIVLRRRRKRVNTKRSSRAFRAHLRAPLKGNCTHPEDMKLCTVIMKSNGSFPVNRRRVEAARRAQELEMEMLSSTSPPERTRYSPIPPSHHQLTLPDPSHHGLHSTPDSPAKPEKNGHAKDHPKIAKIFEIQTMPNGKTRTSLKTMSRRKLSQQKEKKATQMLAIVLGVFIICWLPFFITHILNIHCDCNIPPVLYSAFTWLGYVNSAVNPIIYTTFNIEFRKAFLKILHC

The structures appear in SMILES notation.

This assay addresses dopamine D2 receptor (Homo sapiens, UniProt P14416). In words: Binding affinity for dopamine D2 receptor, 3H-raclopride as ligand (Seeman 1993).

Turning to `CN1CCN(C2=Nc3cc(Cl)ccc3Oc3ccccc32)CC1` [Isoloxapine, reference compound], the Ki is 20 nM.
